Biological target: HLA A2.1 molecule (Homo sapiens, UniProt P04439, D140Y/D185E/D98H/E176V/E277Q/G131W/G231S/I119V/I121R/I166T/I218V/L300P/L318F/N151K/N90K/P208A/P217A/Q86G/Q94H/R138H/R169H/T345S)
Test: Stability of the peptide/HLA A2.1 complex (DC50) on T2 cells, flow cytometry
Format: binding
Procedure: For each incubation time, the cells are then labeled, as indicated above, with the BB7.2 antibody, and analyzed by flow cytometry in order to evaluate the amount of peptide/HLA A2.1 complex present at their surface. […] The DC50 (dissociation complex: DC) is defined as being the time required for the loss of 50% of the HLA A2.1/peptide complexes stabilized at t=0.

With NLQSLTNLL [HBV pol 985] the “DC50” value was less than 2 h and the “DC50 Y1-DC50 WT” value was greater than 6 h.
